Molecular target: Tie1-EpoR chimeric receptor (extracellular domain of human Tie1 fused with the transmembrane and cytoplasmic domains of mouse erythropoietin receptor) on Ba/F3 cells (human; mouse) (UniProt P14753)
Experiment: cell-based or functional assay

The chains behind the UniProt entries cited, without tags or fusion partners. Where a name states a change or a piece, a line headed by the entry shows the natural chain unless it says otherwise.
UniProt P14753: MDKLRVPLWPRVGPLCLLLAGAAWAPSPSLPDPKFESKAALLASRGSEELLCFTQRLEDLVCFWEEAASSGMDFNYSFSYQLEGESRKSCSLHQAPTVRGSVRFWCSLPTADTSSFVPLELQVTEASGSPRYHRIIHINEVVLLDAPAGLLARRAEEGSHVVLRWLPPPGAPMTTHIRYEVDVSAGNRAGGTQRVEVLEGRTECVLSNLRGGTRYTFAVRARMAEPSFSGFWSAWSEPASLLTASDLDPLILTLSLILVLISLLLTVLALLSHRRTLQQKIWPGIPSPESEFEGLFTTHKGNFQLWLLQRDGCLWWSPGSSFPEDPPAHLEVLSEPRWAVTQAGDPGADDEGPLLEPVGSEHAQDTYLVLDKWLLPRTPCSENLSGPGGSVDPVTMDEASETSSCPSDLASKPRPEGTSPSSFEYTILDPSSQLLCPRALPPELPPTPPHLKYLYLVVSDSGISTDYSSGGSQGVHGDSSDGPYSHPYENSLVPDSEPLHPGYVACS

Average MTT activity in BaF3 cell assay, treatment E3 + PA1 (absorbance (540 nm)) | Average MTT activity in BaF3 cell assay, treatment E3 + PA10 (absorbance (540 nm)) | Substance
0.6 | – | P-A1 IgG (anti-Tie1 isolate p-A1, human IgG1) (antibody)
– | 0.65 | P-A10 IgG (anti-Tie1 isolate p-A10, human IgG1) (antibody)
